# Membrane permeability of cyclic peptides

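Conditions beyond the assay type are not listed; see the original paper. The list need not hold all peptides of the study. Entries at the database's floor value (log10 P of -10) are not listed.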

PAMPA measures passive passage through an artificial lipid membrane.
Permeability is given as log10 of P in cm/s; higher (less negative) is more permeable.

compound,PAMPA (log10 cm/s)
CCCCCN1CC(=O)N(C)[C@@H](CC(C)C)C(=O)N[C@@H](CCCC)C(=O)N2CCC[C@@H]2C(=O)N(Cc2ccc3c(c2)OCO3)CC(=O)N[C@@H](Cc2ccccc2)C1=O,-7.41
CCCC[C@@H]1NC(=O)[C@H](CC(C)C)N(C)C(=O)CN(CC2CCOCC2)C(=O)[C@@H](Cc2ccccc2)NC(=O)CN(CC)C(=O)[C@H]2CCCN2C1=O,-6.92
CCCCCN1CC(=O)N[C@H](CC(C)C)C(=O)N[C@@H](CCCC)C(=O)N2CCC[C@@H]2C(=O)N(CC)CC(=O)N[C@@H](C)C1=O,-5.99
CCCC[C@@H]1NC(=O)[C@@H](CC(C)C)N(C)C(=O)CN(CC2CCOCC2)C(=O)[C@H](Cc2ccccc2)NC(=O)CN(Cc2ccc3c(c2)OCO3)C(=O)[C@@H]2CCCN2C1=O,-5.00
CCCC[C@@H]1NC(=O)[C@H](CC(C)C)NC(=O)CN(CC2CCOCC2)C(=O)[C@@H](C)NC(=O)CN(Cc2ccc3c(c2)OCO3)C(=O)[C@@H]2CCCN2C1=O,-7.03
CCCC[C@@H]1NC(=O)[C@@H](CC(C)C)N(C)C(=O)CN(CC2CCCCC2)C(=O)[C@@H](C)NC(=O)CN(CCCOC(C)C)C(=O)[C@H]2CCCN2C1=O,-5.09
CCCCCN1CC(=O)N[C@H](CC(C)C)C(=O)N[C@@H](CCCC)C(=O)N2CCC[C@H]2C(=O)N(CCCOC(C)C)CC(=O)N[C@@H](Cc2ccccc2)C1=O,-4.94
CCCC[C@@H]1NC(=O)[C@H](CC(C)C)NC(=O)CN(CC2CCOCC2)C(=O)[C@@H](C)NC(=O)CN(CCCOC(C)C)C(=O)[C@@H]2CCCN2C1=O,-7.92
CCCC[C@@H]1NC(=O)[C@@H](CC(C)C)NC(=O)CN(CC2CCOCC2)C(=O)[C@@H](C)NC(=O)CN(Cc2ccc3c(c2)OCO3)C(=O)[C@@H]2CCCN2C1=O,-6.64
CCCCCN1CC(=O)N(C)[C@@H](CC(C)C)C(=O)N[C@@H](CCCC)C(=O)N2CCC[C@H]2C(=O)N(CC)CC(=O)N[C@H](C)C1=O,-5.76
CCCCCN1CC(=O)N(C)[C@@H](CC(C)C)C(=O)N[C@@H](CCCC)C(=O)N2CCC[C@H]2C(=O)N(CCCOC(C)C)CC(=O)N[C@@H](C)C1=O,-4.99
CCCC[C@@H]1NC(=O)[C@H](CC(C)C)N(C)C(=O)CN(CC2CCCCC2)C(=O)[C@H](Cc2ccccc2)NC(=O)CN(Cc2ccc3c(c2)OCO3)C(=O)[C@H]2CCCN2C1=O,-7.31

The last 2 entries again:

compound,PAMPA (log10 cm/s)
CCCCCN1CC(=O)N(C)[C@@H](CC(C)C)C(=O)N[C@@H](CCCC)C(=O)N2CCC[C@H]2C(=O)N(CCCOC(C)C)CC(=O)N[C@@H](C)C1=O,-4.99
CCCC[C@@H]1NC(=O)[C@H](CC(C)C)N(C)C(=O)CN(CC2CCCCC2)C(=O)[C@H](Cc2ccccc2)NC(=O)CN(Cc2ccc3c(c2)OCO3)C(=O)[C@H]2CCCN2C1=O,-7.31

Data: CycPeptMPDB; original report Furukawa et al. 2016, doi:10.1021/acs.jmedchem.6b01246.